{"source": "paper PMC4560162", "about": "“Discovery of small molecule inhibitors of xyloglucan endotransglucosylase (XET) activity by high-throughput screening” (Phytochemistry, 2015)", "origin": "cited, not measured here", "target": "PIM1 (an oncogene protein kinase)", "conditions": "ref Holder et al., 2007; cited from earlier work"}
{"smiles": "O=c1c(O)c(-c2ccc(O)c(O)c2)oc2cc(O)c(O)c(O)c12", "note": "[quercetagetin, 3,3′,4′,5,6,7-hexahydroxyflavone]", "values": [{"measurement": "IC50", "result": 340, "unit": "nM"}]}
